The assay has as its target Integrin alpha-V/beta-1 (Homo sapiens, UniProt P05556+P06756). The experiment in a line: Inhibition of integrin alphaVbeta1 (unknown origin)-mediated CHO cell adhesion to fibronectin preincubated for 15 to 30 mins followed by 60 min incubation for adhesion by crystal violet staining based cell adhesion assay. Summed up:
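α5-deficient CHO cells engineered to express αvβ1 were tested for adhesion to fibronectin (0.3 mg/ml). Values reported as pIC50 (–logIC50, M) with standard deviation, n=3.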

By UniProt entry, the sequences of proteins in these tests, tags left out. Residues count along the entry.
UniProt P06756, 891-1048 limits assumed: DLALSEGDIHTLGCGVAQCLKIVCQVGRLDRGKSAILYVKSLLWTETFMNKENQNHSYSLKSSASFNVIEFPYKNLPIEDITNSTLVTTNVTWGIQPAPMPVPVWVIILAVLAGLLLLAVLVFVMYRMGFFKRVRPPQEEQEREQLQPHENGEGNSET
UniProt P06756, 31-889 limits assumed: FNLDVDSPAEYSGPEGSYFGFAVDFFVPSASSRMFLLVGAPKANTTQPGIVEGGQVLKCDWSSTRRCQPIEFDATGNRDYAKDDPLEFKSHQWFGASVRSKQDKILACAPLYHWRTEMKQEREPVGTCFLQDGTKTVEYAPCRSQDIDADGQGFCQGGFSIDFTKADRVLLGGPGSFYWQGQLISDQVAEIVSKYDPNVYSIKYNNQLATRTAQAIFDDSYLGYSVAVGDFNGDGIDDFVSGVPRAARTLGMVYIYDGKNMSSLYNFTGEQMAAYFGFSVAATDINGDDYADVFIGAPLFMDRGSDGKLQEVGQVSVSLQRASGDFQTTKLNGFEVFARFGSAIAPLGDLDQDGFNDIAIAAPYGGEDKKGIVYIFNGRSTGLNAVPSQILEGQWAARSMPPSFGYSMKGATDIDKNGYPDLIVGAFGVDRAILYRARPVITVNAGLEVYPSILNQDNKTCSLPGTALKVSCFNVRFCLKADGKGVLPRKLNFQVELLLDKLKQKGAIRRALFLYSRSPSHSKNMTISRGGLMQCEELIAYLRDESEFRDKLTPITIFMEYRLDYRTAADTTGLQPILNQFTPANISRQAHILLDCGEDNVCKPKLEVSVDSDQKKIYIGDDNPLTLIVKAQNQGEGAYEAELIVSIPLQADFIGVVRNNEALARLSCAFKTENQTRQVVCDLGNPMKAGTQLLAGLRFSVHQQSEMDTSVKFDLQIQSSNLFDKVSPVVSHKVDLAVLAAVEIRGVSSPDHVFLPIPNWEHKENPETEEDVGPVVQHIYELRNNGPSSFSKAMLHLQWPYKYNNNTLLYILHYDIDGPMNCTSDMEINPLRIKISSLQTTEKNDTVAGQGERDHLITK

The source of these data is ChEMBL document CHEMBL3862028, “Exploring N-Arylsulfonyl-l-proline Scaffold as a Platform for Potent and Selective αvβ1 Integrin Inhibitors” (ACS Med Chem Lett, 2016).

As for `N=C(N)NCCC[C@H](NC(=O)CN)C(=O)NCC(=O)N[C@@H](CC(=O)O)C(=O)N[C@@H](CO)C(=O)O`, half-maximal inhibition (IC50) was put at 100 µM.
